Source: IntAct's records for PubMed 29420262

B1: Innate immunity activator protein (Homo sapiens), Q3KP66 (parent)
chain: MLQMPKLNEIPPGRAGRREARGEGRWPGQTGPEAARLEWRAQGQAGGARAPWDSWGSSRLPTQPGPGWSRCPPSLLCALSFQKSTMESKDEVSDTDSGIILQSGPDSPVSPMKELTHAVHKQQRALEARLEACLEELRRLCLREAELTGTLPAEYPLKPGEKAPKVRRRIGAAYKLDDWALHREDPLSSLERQLALQLQITEAARRLCLEENLSRQARRQRKHSMLQEEKKLQELQRCLVERRRNSEPPPAAALPLGRELSASDDSSLSDGLLLEEEESQVPKPPPESPAPPSRPLPPQTLEGLQPTGPEAGSPERAPVQNSPWKETSLDHPYEKPRKSSEPWSESSSPATTPQDGPSASSLWLLEPASYHVVPIRGVPGQWQGRTSAPATPEIQGRRGQSQSLRVDSFRAGPEGRGRSAFPRRRPTHYTVTVPDSCFPATKPPLPHAACHSCSEDSGSDVSSISHPTSPGSSSPDISFLQPLSPPKTHRHRGAWVPAGSRELVAHHPKLLLPPGYFPAGRYVVVAESPLPPGEWELRRAAPGPAYEEEGTPLRYQRLVPSRSRIVRTPSLKDSPAGRGLSKAAVSEELKWWHERARLRSTRPHSLDRQGAFRVRSLPLGREGFGRALGPRAQVPTVCVLRRSPDGAPVQVFVPEKGEIISQV

Variants of: B1
Conditions: with cyh1_human CYTH1, Q15438

effect of a mutation on the interaction | Variant
increasing interaction | Y333F
